Here are results for 36 molecules from PubChem BioAssay AID652104 (National Center for Advancing Translational Sciences (NCATS), 2013).

Each structure is given as a SMILES string. “And” between values parts separate entries of the source, which are not always exact repeats. Equal values may be shown once. The entries are a selection whose mix differs from that of the whole data set. Some tests of the compounds listed are not included; inactive here does not mean inactive elsewhere. Inconclusive results are not listed. The source made the active and inactive calls. Calls come from the whole dose curve; as a rule, active = well fitted activation curve with a large enough effect; inconclusive = small, poorly fitted or top-dose-only effect, or another doubt; inactive = no such curve, though single readings can be large or run the other way.

This test can be described thus: qHTS of TDP-43 Inhibitors. Note: % of control where 0% means no effect; nearly all actives have a fitted effect of over 50% in size. To be noted: TDP-43 expressing yeast growth rescue, BacTiter-Glo, 24 h; at 46.1 µM (top of the series) unless noted. For orientation: qHTS replaces the single test concentration by a dilution series.
On to `CC(C)COc1ccc(C(=O)NCC2(N(C)C)CCCCC2)cc1`, for which the growth rescue (activation) was inactive: -15.8%.
Next, `O=C(OC1CN2CCC1CC2)C(CO)(c1ccccc1)c1ccccc1` (stereo unspecified): inactive: -6.35%.
In the case of `COc1cccc(C(=O)NCC2(N3CCOCC3)CCCCC2)c1`, the growth rescue (activation) was inactive: -7.89%.
Consider `CN(C)c1cccc(C(=O)NCC2(N(C)C)CCCCC2)c1`, for which the growth rescue (activation) was inactive: 6.9%.
As for `CC(C)Oc1ccc(C(=O)NCC2(N(C)C)CCCCC2)cc1`, the growth rescue (activation) was inactive: 17.2% and inactive: 9.78%.
As for `O=C(OCCN1CCCC1)C(O)(c1ccccc1)c1ccccc1`, the growth rescue (activation) is inactive: 14.5%.
Consider `Cc1cccc(C(=O)NCC2(N(C)C)CCCCC2)c1`, for which the growth rescue (activation) was inactive: 30.1%.
Take `COc1cc(C(=O)NCC2(N(C)C)CCCCC2)cc(OC)c1OC`: the growth rescue (activation) was inactive: 12.1% [at 9.22 µM].
Regarding `COc1ccc(Br)c(C(=O)NCC2(N3CCCCC3)CCCCC2)c1`, the growth rescue (activation) is inactive: 5.83%.
For the molecule `C=C(C)C#CC(O)(C(=O)OC1CCN(C)CC1)c1ccccc1` (stereo unspecified), the growth rescue (activation) was inactive: -9.79%.
As to `COc1cc(C(=O)NCC2(N(C)C)CCCCC2)c([N+](=O)[O-])cc1OC`, the growth rescue (activation) is inactive: 2.15%.
Take `CN(C)C1(CNC(=O)c2ccc(Br)cc2)CCCCC1`: the growth rescue (activation) is inactive: -27.9%.
`O=C(NCC1(N2CCCCC2)CCCCC1)c1cccc(Cl)c1`: the growth rescue (activation) was inactive: -5.09%.
Next, `COc1ccc(C(=O)NCC2(N(C)C)CCCCC2)cc1Cl`: inactive: 8.22%; `COc1cccc(C(=O)NCC2(N3CCCCC3)CCCCC2)c1`: inactive: -12.3%.
`COc1ccc(Cl)cc1C(=O)NCC1(N(C)C)CCCCC1`: the growth rescue (activation) is inactive: 5%.
On to `CCCCOc1ccccc1C(=O)NCC1(N(C)C)CCCCC1`, for which the growth rescue (activation) is inactive: -31.1%.
Take `CN(C)C1(CNC(=O)c2ccccc2[N+](=O)[O-])CCCCC1`: the growth rescue (activation) was inactive: 11.5%.
Take `Cc1ccccc1C(=O)NCC1(N2CCCCC2)CCCCC1`: the growth rescue (activation) was inactive: 14.2%.
Next, `CN(C)C1CCCC1OC(=O)C(O)(c1ccccc1)c1ccccc1` (stereo unspecified): inactive: -0.27%; `CN(C)c1ccc(C(=O)NCC2(N(C)C)CCCCC2)cc1`: inactive: 11%.
Turning to `Cc1cc(C(=O)NCC2(N3CCCCC3)CCCCC2)ccc1[N+](=O)[O-]`, the growth rescue (activation) is inactive: -6.82%.
With `CCN1CCCC(OC(=O)C2(O)c3ccccc3C=Cc3ccccc32)C1` (stereo unspecified), the growth rescue (activation) is inactive: 6.86%.
The same measure for `O=C(NCC1(N2CCCCC2)CCCCC1)c1cccc(Br)c1`: inactive: -10.5%; for `COc1ccc(C(=O)NCC2(N(C)C)CCCCC2)cc1`: inactive: 18.6%.
As to `CCOc1cccc(C(=O)NCC2(N(C)C)CCCCC2)c1`, the growth rescue (activation) is inactive: -2.63%.
As for `C=CCN1CCN(CCOC(=O)C(O)(c2ccccc2)c2ccccc2)CC1`, the growth rescue (activation) was inactive: 9.39%.
The same measure for `O=C(NCC1(N2CCCCC2)CCCCC1)c1cc(F)c(F)cc1Cl`: inactive: -6.16%.
Next, `CN1[C@@H]2CC[C@H]1CC(OC(=O)C(O)(c1ccccc1)c1ccccc1)C2` (stereo partly specified): inactive: 7.56%; `O=C(NCC1(N2CCCCC2)CCCCC1)c1cc([N+](=O)[O-])ccc1Cl`: inactive: 13.5%; `CN(C)C1(CNC(=O)c2ccccc2F)CCCCC1`: inactive: -1.91%.
For the molecule `Cc1ccc(C(=O)NCC2(N3CCCCC3)CCCCC2)cc1`, the growth rescue (activation) was inactive: -29.8%.
With `CC(C)N1C(=O)CC2(CCN(CCOC(=O)C(O)(c3ccccc3)c3ccccc3)CC2)C1=O`, the growth rescue (activation) was inactive: 6.44%.
For the molecule `CCN(CC)CC(C)C(C)OC(=O)C(O)(c1ccccc1)c1ccccc1` (stereo unspecified), the growth rescue (activation) is inactive: -0.453%.
Regarding `CN(C)C1(CNC(=O)c2cccc(Cl)c2)CCCCC1`, the growth rescue (activation) was inactive: 16.6%.
Next, `COc1cc(SC)ccc1C(=O)NCC1(N(C)C)CCCCC1`: inactive: 5.92%.
